Source: patent EP0791072B1, “PROCESS FOR DETERMINING THE ACTIVITY OF SPECIFIC PHOSPHOTYROSINE PHOSPHATASES AND SPECIFIC EFFECTORS THEREOF IN INTACT CELLS” (Max-Planck-Gesellschaft zur Förderung der Wissenschaften …, priority 1994, dated 1996)

Tested on: PDGF-Rezeptor-gerichtete(n) PTPase(n)
Assay: Effector test for PDGF receptor-directed PTPase activity in intact Swiss 3T3 cells (AG 1296 test, quantified immunoblots)
Assay type: cell-based, Maus
Details: effector 2 mM, relative dephosphorylation of PDGF receptor after 5 min, control without effector = 100 %

Na-Orthovanadat
Relative PDGF Rezeptor-gerichtete PTPase-Aktivität (% der Kontrolle): 34 % der Kontrolle
